Test results from patent US20180092393A1, “IRON NICOTINATE COMPOSITION” (NESTEC S.A., priority 2015, published 2018).
Like-named read-outs stand apart in the source and are kept apart here.

Assays:
[1] = colour difference vs product with no iron salts, approximately 2.1 mg iron per 100 g, flash pasteurized at 3.05° C. for 2 minutes, 47.3% banana puree

Substance	ΔEab* [1]	solubility in water	ΔEab* ([1]; listed as ferrous nicotinate)
Ferric pyrophosphate [reference compound]	3.36	–	–
Ferrous nicotinate	2.11	fully soluble	smallest colour change
